Test results from patent US6667153B1 (priority 2000, dated 2003).
Read-outs that look alike come from different tables or passages of the source.

Experiments:
[1] = system: E. coli GW2100/pTJgfp (umuC'::gfp); assay: umuC'::gfp fusion fluorescence assay, 96 parallel cultures (Example 1); settings: nutrient broth, FIG. 2
[2] = system: arg-3 marker in E. coli strain GW2100/pTJgfp; assay: revertant colony assay, mutation from arg-3 to Arg+, with KS test (Example 2); settings: for Mean revertant colony numbers: 40 parallel cultures, 4 day plate incubation
[3] = system: E. coli GW2100/pTJgfp (umuC'-gfp fusion); settings: for Mean fluorescence emission: 84 parallel cultures, 24 hours incubation

N-methyl-N-nitro-N-nitrosoguanidine was tested, and the “fluorescence level compared with the 0 dose control” value ([1]; MNNG 0.1 μg/ml) was “no significant increase”, the “fluorescence level compared with the 0 dose control” value ([1]; MNNG 1.5, 3.5 and 7 μg/ml, stationary and logarithmic phase cells) was “dose-dependent increase” and the “mutagenic activity by shift in variation and arithmetic mean of revertant colony numbers” value ([2]; 1.7 μl of MNNG, 24 parallel cultures, FIG. 9b) was “can be detected”. For the same substance, the “K.S statistic, revertant colony numbers, mutagen versus the control” value ([2]; MNNG 0.1 μg/ml) was 1.789, the “Mean revertant colony numbers” value ([2]; MNNG 0.1 μg/ml) was 8.05 and the “K.S statistic, revertant colony numbers, mutagen versus the control” value ([2]; MNNG 3.5 μg/ml) was 3.130. For the same substance, the “response in mean revertant colony numbers compared to zero exposure controls” value ([2]; MNNG 3.5 μg/ml, 40 cultures, FIG. 7) was “positive response”, the “Mean revertant colony numbers” value ([2]; MNNG 3.5 μg/ml) was 24.9 and the “mutagenic activity by shift in variation and arithmetic mean of fluorescent emission” value ([3]; 1.7 μl of MNNG, 24 parallel cultures, FIG. 9a) was “can be detected”. For the same substance, the “K.S statistic, fluorescence emission, mutagen versus the control” value ([3]; MNNG 0.1 μg/ml) was 3.94, the Mean fluorescence emission ([3]; MNNG 0.1 μg/ml) was 10.82 and the “K.S statistic, fluorescence emission, mutagen versus the control” value ([3]; MNNG 3.5 μg/ml) was 6.48. The Mean fluorescence emission ([3]; MNNG 3.5 μg/ml) was 19.39 and the “mutagenic activity by shift in distribution of fluorescent output per culture” value ([3]; MNNG 3.5 μg/ml, 84 replicate cultures, FIG. 11) was “clearly evident”.
